Earlier results in paper PMC3401594 (International Journal of Pharmaceutics, 2009).

The chains behind the UniProt entries cited, without tags or fusion partners.
UniProt P08183, whole entry: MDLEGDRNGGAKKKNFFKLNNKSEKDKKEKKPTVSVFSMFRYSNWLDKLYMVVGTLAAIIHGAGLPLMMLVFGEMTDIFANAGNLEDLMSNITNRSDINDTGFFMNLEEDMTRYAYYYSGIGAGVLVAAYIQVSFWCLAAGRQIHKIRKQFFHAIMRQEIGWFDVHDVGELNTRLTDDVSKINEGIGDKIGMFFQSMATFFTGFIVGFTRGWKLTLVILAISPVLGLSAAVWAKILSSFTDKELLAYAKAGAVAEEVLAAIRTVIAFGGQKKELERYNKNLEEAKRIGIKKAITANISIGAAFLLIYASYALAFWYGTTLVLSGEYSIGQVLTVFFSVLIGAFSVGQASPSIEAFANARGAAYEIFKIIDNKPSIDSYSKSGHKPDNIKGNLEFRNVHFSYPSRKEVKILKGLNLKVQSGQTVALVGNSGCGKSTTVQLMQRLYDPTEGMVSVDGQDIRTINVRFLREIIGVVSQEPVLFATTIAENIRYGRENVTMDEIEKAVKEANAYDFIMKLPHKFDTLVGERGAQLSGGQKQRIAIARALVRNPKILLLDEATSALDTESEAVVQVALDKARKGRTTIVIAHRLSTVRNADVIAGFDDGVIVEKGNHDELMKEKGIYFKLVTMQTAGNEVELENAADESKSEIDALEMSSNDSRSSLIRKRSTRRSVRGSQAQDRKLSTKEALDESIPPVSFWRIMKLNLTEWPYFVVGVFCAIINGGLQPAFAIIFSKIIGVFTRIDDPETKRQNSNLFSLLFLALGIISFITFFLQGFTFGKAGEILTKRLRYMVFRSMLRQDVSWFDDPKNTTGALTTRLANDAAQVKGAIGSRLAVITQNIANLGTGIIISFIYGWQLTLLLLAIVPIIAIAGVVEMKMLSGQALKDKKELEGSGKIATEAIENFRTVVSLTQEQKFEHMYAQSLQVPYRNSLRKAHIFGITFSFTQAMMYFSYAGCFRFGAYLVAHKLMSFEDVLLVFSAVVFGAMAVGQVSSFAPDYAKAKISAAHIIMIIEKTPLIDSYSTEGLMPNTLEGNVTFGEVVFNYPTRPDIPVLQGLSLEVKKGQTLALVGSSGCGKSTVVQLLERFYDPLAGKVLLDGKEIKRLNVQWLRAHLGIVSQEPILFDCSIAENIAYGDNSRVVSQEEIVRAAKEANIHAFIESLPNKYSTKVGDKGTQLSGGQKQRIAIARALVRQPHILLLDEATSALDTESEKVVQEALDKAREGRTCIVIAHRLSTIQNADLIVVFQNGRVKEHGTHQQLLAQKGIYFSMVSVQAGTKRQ

Target: recombinant human P-gp (Homo sapiens, UniProt P08183)
Conditions: cited from earlier work

buprenorphine
Fold stimulation of P-gp ATPase activity: ~ 1 fold
